According to ChEMBL document CHEMBL1143652, “Joys of molecules. 2. Endeavors in chemical biology and medicinal chemistry” (J Med Chem, 2005):

Biological target: Protein kinase C (PKC)
Experiment: Inhibitory constant against protein kinase C
Format: protein assay

O=C(N[C@@H]1CNCCC[C@H]1OC(=O)c1cc(O)c(C(=O)c2c(O)cccc2C(=O)O)c(O)c1)c1ccc(O)cc1 [BALANOL]
Ki: 5.3 nM
